Results on 6 molecules are retold here after patent US20160333020A1, “7-BETA ANALOGS OF ORVINOLS” (published 2016).

Chains of the proteins cited; added tags and fusions are not shown.
UniProt P35372, whole entry: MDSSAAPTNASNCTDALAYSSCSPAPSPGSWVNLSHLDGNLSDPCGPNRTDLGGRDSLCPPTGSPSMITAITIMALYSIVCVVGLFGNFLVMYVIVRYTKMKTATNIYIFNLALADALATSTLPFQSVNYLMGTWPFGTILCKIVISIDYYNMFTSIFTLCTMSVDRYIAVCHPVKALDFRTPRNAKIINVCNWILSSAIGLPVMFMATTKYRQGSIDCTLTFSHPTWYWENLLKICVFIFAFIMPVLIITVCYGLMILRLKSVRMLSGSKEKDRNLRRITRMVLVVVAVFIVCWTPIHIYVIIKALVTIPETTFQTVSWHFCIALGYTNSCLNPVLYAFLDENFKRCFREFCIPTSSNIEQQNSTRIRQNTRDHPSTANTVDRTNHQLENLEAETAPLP
UniProt P41145, whole entry: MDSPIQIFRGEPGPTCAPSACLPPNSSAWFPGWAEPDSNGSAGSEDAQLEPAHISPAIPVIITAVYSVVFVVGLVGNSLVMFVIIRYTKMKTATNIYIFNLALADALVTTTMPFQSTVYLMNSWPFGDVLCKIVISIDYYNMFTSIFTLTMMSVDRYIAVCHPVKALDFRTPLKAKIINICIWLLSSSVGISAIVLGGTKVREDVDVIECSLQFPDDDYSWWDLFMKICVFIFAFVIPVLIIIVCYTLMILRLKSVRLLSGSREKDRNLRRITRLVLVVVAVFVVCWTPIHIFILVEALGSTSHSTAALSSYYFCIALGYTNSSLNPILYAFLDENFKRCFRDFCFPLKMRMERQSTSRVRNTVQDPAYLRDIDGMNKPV

Usually EC50 stands for the concentration that produces a half-maximal response.

For experiment [1], the target named is T1, μ-opioid receptor (Homo sapiens, UniProt P35372). Description: [35S]GTPγS functional assay, μ-opioid receptor, U-2 OS cells. (In general: GTPγS is a poorly hydrolysed GTP analogue; its binding reports G protein activation.)
Experiment [2] addresses T1, μ-opioid receptor. Description: [35S]GTPγS functional assay, μ-opioid receptor, HEK-293 cells. The settings on record: for μ Emax (%): maximal effect relative to DAMGO, Table 1; for EC50: read-out: μ EC50, μ GTP EC50, Table 1.
The target of experiment [3] is κ-opioid receptor (Homo sapiens, UniProt P41145). Description: [35S]GTPγS functional assay, κ-opioid receptor, U-2 OS cells.

Consider `COc1ccc2c3c1O[C@H]1[C@@]4(OC)CC[C@@]5(C[C@H]4COCc4ccccc4)[C@@H](C2)N(CC2CC2)CC[C@]315`, for which the “μ Emax (%)” value in experiment [1] (maximal effect relative to DAMGO, Table 2) amounted to 75.2 ± 2.39%; in experiment [2], 15.5 ± 0.65%. The EC50 in experiment [1] (read-out: μ EC50, μ GTP EC50, Table 2) stood at 0.5 nM; in experiment [2], 5.36 nM; in experiment [3] (read-out: κ EC50, κ GTP EC50, Table 2) it was 0.038 nM. Moreover, the “κ Emax (%)” value in experiment [3] (maximal effect relative to U69,593, Table 2) is given as 89.0 ± 3.51%.
For `COc1ccc2c3c1O[C@H]1[C@@]4(OC)CC[C@@]5(C[C@H]4COCc4ccoc4)[C@@H](C2)N(CC2CC2)CC[C@]315`, in experiment [2], the “μ Emax (%)” value came out at 19.0 ± 1.14% and the concentration for a half-maximal effect (EC50) is 2.51 nM.
Taken in the same sequence, the figures for `CO[C@]12CC[C@@]3(C[C@H]1CN(C)Cc1ccccc1)[C@H]1Cc4ccc(O)c5c4[C@@]3(CCN1CC1CC1)[C@H]2O5` were 20.4 ± 1.12% and 0.23 nM.
Taken in the same sequence, the figures for `COc1ccc2c3c1O[C@H]1[C@@]4(OC)CC[C@@]5(C[C@H]4CN(C)Cc4ccccc4)[C@@H](C2)N(CC2CC2)CC[C@]315` were 26.0 ± 2.65% and 6.4 nM.
For `COc1ccc2c3c1OC1[C@@]4(OC)CC[C@@]5(C[C@H]4CNCc4ccccc4)[C@@H](C2)N(CC2CC2)CC[C@]315` (stereo partly shown), in that order: 98.0 ± 6.03% and 4.17 nM.
For the molecule `CO[C@]12CC[C@@]3(C[C@H]1COCc1ccoc1)[C@H]1Cc4ccc(O)c5c4[C@@]3(CCN1CC1CC1)[C@H]2O5`, in experiment [2], the “μ Emax (%)” value is on record as 15.0 ± 4.04% and the EC50 is 0.21 nM.
